{"sequences": {"note": "Protein sequences, listed by entry. Tags and fused reporters are not part of them. Lines headed by an entry give the natural chain unless they say otherwise; changes in a name come on top.", "UniProt O42275": "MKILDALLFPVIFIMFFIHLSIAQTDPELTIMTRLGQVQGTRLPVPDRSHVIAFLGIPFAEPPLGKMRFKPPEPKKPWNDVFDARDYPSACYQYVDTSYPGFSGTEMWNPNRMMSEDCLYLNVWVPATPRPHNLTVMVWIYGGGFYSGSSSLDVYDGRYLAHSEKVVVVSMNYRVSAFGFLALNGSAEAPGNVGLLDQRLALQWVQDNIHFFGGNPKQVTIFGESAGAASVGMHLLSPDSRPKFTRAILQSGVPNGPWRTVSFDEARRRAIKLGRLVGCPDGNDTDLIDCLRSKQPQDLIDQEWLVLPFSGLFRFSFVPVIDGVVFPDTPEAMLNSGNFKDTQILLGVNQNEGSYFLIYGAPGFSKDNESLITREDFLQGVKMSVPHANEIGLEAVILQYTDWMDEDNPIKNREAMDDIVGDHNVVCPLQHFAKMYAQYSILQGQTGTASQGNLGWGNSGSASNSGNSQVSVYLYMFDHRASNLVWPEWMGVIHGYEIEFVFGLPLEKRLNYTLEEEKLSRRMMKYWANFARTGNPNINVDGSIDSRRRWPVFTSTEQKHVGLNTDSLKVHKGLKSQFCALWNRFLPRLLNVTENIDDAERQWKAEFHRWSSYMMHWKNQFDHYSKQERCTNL"}, "source": "ChEMBL document CHEMBL4325836", "about": "“Novel tacrine-pyridinium hybrid reactivators of organophosphorus-inhibited acetylcholinesterase: Synthesis, molecular docking, and in vitro reactivation study” (2018)"}
{"biological_target": "Acetylcholinesterase (Electrophorus electricus) (UniProt O42275)", "assay": "Reactivation of paraoxon-inhibited electric eel AChE assessed as residual activity at 1 uM using acetylthiocholine iodide as substrate preincubated for 30 mins followed by substrate addition and measured every 3 mins for 15 mins relative to control", "units": {"Activity": "%"}}
{"smiles": "NC(=O)c1cc[n+](COC[n+]2ccccc2/C=N/O)cc1", "Activity": 4}
{"smiles": "O/N=C/c1cc[n+](CCCCCNc2c3c(nc4ccccc24)CCCC3)cc1", "Activity": 41}
{"smiles": "O/N=C/c1cc[n+](CCCCNc2c3c(nc4ccccc24)CCCC3)cc1", "Activity": 41}
